Data: patent US20110129508A1 (priority 2008, published 2011)

Conditions: male, Wistar (HsdBrlHan WIST), rat, in vivo

With `CN1CC[C@]23c4c5ccc(O)c4O[C@H]2[C@@H](O)C=C[C@H]3[C@H]1C5` [morphine] the “mean, open field activity monitor (test for sedation)” value was 814.2 and the “mean, open field activity monitoring (sedation test)” value was 814.20.
